Measurements published in patent publication US20040259250A1 (published 2004).

Biological target: epidermal growth factor receptor (EGFR)
Test: cell-based or functional assay

B1: DEDSH2 adaptor molecule comprising the death effector domain of FADD and the SH2 domain of Grb2 (other, not shown: small tags and cut ends)
chain: MDPFLVLLHSLSGSLSGNDLMELKFLCRERVSKRKLERVQSGLDLFTVLLEQNDLERGHTGLLRELLASLRRHDLLQRLDDFENSWFFGKIPRAKAEEMLSKQRHDGAFLIRESESAPGDFSLSVKFGNDVQHFKVLRDGAGKYFLWVVKFNSLNELVDYHRSTSASRNQQIFLRDIEQ
caspase 8 activity: 6 fold
